# Laboratory results from patent US8685443B2, “Sequestering subunit and related compositions and methods” (Alpharma Pharmaceuticals LLC, priority 2002, dated 2014).
# Conditions: in comparison to a 15 mg dose of hydrocodone
smiles,measurement,value
CN1CC[C@]23c4c5ccc(O)c4O[C@H]2C(=O)CC[C@H]3[C@H]1C5 [Hydromorphone],Calculated Dose (equianalgesic dose),3.375 mg
